According to patent EP4837900A1, “AROMATIC HYDRAZIDE DERIVATIVE AND MEDICAL USE THEREOF” (dated 2026):

What was measured:
[1] = tested on: colorectal cancer SW480 cells; assay: Pharmacodynamic experiment, subcutaneous xenograft tumor model of colorectal cancer SW480 cells; conditions: BALB/c nude mice, 0.2 mg/kg, oral gavage, QD × 24 days
Description: (§1) Animal species and number: BALB/c nude mice, 6 mice in each group.
Experimental groups: blank solvent control group, compound 3-9 (0.2 mg/kg, QD × 24 days) and compound 4-1 (0.2 mg/kg, QD × 24 days).
Establishment of animal model: SW480 tumor cells in a logarithmic growth phase were cultured in vitro and harvested, and subcutaneously inoculated into the right dorsal side of the Balb/c Nude mice, and when tumors grew to about 180-250 mm^3, the tumor-bearing mice were randomly divided into groups. Subsequently, each group of animals were administered with the test compounds, and the first day of drug administration was defined as Day 1 of the experiment.
Drug administration route and frequency: oral gavage, once per day, for 24 consecutive days.
(§2) General state observation: the mice were observed once per day, and observation contents comprised, but were not limited to, local areas of administration, physical signs, general behaviors, mental states, death and other situations, and other abnormal manifestations of the animals.
Tumor volume calculation: V = 0.5 a × b^2, wherein a was a long diameter of tumor and b was a short diameter of tumor. Tumor growth inhibition rates TGI (%) were used to evaluate anti-tumor effects of the compounds. TGI (%) = [1 - (mean tumor volume of the treatment group at the end of drug administration - mean tumor volume of the treatment group at the start of drug administration) / (mean tumor volume of the control group at the end of drug administration - mean tumor volume of the control group at the start of drug administration)] × 100%.

[2] = tested on: colorectal cancer SW480 cells; assay: Inhibitory activity test on proliferation of colorectal cancer SW480 cells (CellTiter-3D-Glo); conditions: low-attachment 96-well U-bottom plate
Description: Cell proliferation viability was detected by a CellTiter-3D-Glo reagent assay. An experimental procedure was as follows: SW480 cells in a logarithmic growth phase were digested, diluted to a suitable cell density with DMEM complete medium containing 10% FBS and 1% PS, seeded into a low-attachment 96-well U-bottom plate, and cultured in 5% CO2; and then test compounds at a series of gradient concentrations were added, and the plate was incubated in a 5% CO2 incubator. After finishing the incubation, the cells were lysed and detected by using the CellTiter-3D-Glo reagent. Chemiluminescence values were measured by a microplate reader, and data were fitted by Graphpad Prism software, so as to calculate IC50 values of tested substances.

[3] = tested on: lung cancer NCI-H358 cells; assay: Inhibitory activity test on proliferation of lung cancer NCI-H358 cells (CellTiter-3D-Glo); conditions: low-attachment 96-well U-bottom plate
Description: Cell proliferation viability was detected by a CellTiter-3D-Glo reagent assay. An experimental procedure was as follows: NCI-H358 cells in a logarithmic growth phase were digested and seeded into a low-attachment 96-well U-bottom plate at an appropriate density, and cultured in a cell culture incubator; and media containing test compounds at a series of gradient concentrations were added to experimental wells, while a control medium was added to a control well, and the plate was incubated in a 5% CO2 incubator. After finishing the incubation, the CellTiter-3D-Glo reagent was added to each well for lysis and detection; and chemiluminescence values were measured by a microplate reader. Data were fitted by Graphpad Prism software, so as to calculate IC50 values of tested substances.

[4] = Solubility test in hydrochloric acid solution at pH 1.2 (HPLC); conditions: hydrochloric acid solution at pH 1.2, 37°C water bath
Description: Test procedure: 5 mL of hydrochloric acid solution at pH 1.2 was added into a 25 mL stoppered colorimetric tube, then compound 4-1 was added, the mixture was stirred in a 37°C water bath and filtered through a polyethersulfone membrane, and a concentration of the filtrate was determined by HPLC.

[5] = tested on: pancreatic cancer ASPC-1 cells; assay: Pharmacodynamic experiment, subcutaneous xenograft tumor model of pancreatic cancer ASPC-1 cells; conditions: ASPC-1 xenograft, BALB/c nude mice, 0.2 mg/kg, oral gavage, QD × 21 days
Description: as §1
Experimental groups: blank solvent control group and compound 4-1 (0.2 mg/kg, QD × 21 days).
Establishment of animal model: pancreatic cancer ASPC-1 cells in a logarithmic growth phase were cultured in vitro and harvested, and subcutaneously inoculated into the right dorsal side of the Balb/c Nude mice, when tumors grew to about 200-300 mm^3, the tumor-bearing mice were randomly divided into groups based on tumor volume, and subsequently the animals in each group were administered with the test compound, wherein the first day of administration was defined as Day 1 of the experiment.
Drug administration route and frequency: oral gavage, once per day, for 21 consecutive days.
as §2, with “observation time and frequency:” for “the mice were observed”, “daily;” for “per day, and”, “indicators or contents:” for “contents”
Tumor volume calculation: V = 0.5 a × b^2, wherein a was a long diameter of tumor and b was a short diameter of tumor. A tumor growth inhibition rate TGI (%) was used to evaluate an anti-tumor effect of the compound. […]

Row | SMILES | IC50 [2] | IC50 [3] | further results
1 | CNS(=O)(=O)Nc1nccc(Cc2cc(C(=O)NN)c(Nc3ccc(I)cc3F)c(F)c2F)c1F | 0.05 nM | 0.15 nM | General state of the animals during the drug administration period (diet, body weight, activity) [1]: normal diet, body weight and activity; Tumor inhibition rate [1]: +++ (tumor inhibition rate > 90%)
2 | C#CCNNC(=O)c1cc(Cc2ccnc(NS(=O)(=O)NC)c2F)c(F)c(F)c1Nc1ccc(I)cc1F | 0.08 nM | – | –
3 | CNC(=O)c1cc(Cc2ccnc(NS(=O)(=O)NC)c2F)c(F)c(F)c1Nc1ccc(I)cc1F | – | 2.1 nM | –
4 | CNS(=O)(=O)Nc1nccc(Cc2cc(C(=O)NOC)c(Nc3ccc(I)cc3F)c(F)c2F)c1F | 0.24 nM | – | –

Now from value to molecule, other results behind:

Row | IC50 [2] | IC50 [3] | SMILES | further results
5 | 0.04 nM | 0.13 nM | [2H]C([2H])([2H])NS(=O)(=O)Nc1nccc(Cc2cc(C(=O)NNCC=C)c(Nc3ccc(I)cc3F)c(F)c2F)c1F | –
6 | 0.03 nM | 0.12 nM | C=CCNNC(=O)c1cc(Cc2ccnc(NS(=O)(=O)NC)c2F)c(F)c(F)c1Nc1ccc(I)cc1F | General state of the animals during the drug administration period (diet, body weight, activity) [1]: normal diet, body weight and activity; Tumor inhibition rate [1]: +++ (tumor inhibition rate > 90%); Solubility [4]: +++ (solubility > 30 µg/mL); General state of the animals during the drug administration period (diet, body weight, activity) [5]: normal diet, body weight and activity; TGI (%) [5]: +++ (tumor inhibition rate > 100%)
7 | 0.03 nM | – | [2H]C([2H])(C=C)NNC(=O)c1cc(Cc2ccnc(NS(=O)(=O)NC)c2F)c(F)c(F)c1Nc1ccc(I)cc1F | –
8 | 0.08 nM | – | CNS(=O)(=O)Nc1nccc(Cc2cc(C(=O)NNCCO)c(Nc3ccc(I)cc3F)c(F)c2F)c1F | –
